Data as given in ChEMBL document CHEMBL3576868 (J Med Chem, 2015).

Columns and labels:
[1] = target: T1, Beta-N-acetyl-D-hexosaminidase-A/B (Homo sapiens, UniProt P07686+P06865); assay: Inhibition of human placental HexA using pNPGlcNAc substrate
T1 sequence (P07686 whole entry): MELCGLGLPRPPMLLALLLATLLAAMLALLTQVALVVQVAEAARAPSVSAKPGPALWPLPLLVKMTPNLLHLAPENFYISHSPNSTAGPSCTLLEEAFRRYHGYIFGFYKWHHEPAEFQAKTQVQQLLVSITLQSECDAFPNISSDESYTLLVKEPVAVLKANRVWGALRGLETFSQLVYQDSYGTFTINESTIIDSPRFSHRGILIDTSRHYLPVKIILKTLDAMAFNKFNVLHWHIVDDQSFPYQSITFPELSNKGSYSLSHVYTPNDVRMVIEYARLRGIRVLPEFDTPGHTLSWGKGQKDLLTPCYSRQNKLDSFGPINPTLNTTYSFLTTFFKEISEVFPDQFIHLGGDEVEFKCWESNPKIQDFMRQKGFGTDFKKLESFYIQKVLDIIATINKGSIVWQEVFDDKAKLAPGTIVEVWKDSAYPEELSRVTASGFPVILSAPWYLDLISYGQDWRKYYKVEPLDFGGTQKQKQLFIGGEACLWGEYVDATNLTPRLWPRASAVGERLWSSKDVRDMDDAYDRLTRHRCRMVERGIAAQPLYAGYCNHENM
T1 sequence (P06865 whole entry): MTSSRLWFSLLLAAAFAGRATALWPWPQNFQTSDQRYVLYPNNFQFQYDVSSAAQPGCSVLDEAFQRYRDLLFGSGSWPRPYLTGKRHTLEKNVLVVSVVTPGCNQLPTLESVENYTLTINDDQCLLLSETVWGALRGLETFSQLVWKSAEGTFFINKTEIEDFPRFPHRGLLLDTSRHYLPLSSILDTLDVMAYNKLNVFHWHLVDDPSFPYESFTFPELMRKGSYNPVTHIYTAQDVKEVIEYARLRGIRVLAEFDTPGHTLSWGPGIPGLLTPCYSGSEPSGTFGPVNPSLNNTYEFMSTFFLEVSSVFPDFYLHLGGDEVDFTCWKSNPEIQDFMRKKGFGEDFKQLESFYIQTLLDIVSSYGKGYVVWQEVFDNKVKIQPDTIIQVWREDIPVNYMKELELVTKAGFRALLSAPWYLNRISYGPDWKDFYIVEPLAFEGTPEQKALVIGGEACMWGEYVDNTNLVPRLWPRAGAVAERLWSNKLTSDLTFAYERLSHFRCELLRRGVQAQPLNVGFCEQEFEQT
In short: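 Purified Hex A from human placenta (10 ng/mL) incubated at 37 °C with diluted compound and pNPGlcNAc (1.6 mM) in McIlvaine citrate phosphate buffer pH 4.5 with 0.025% human serum albumin. Reaction stopped with 0.1 M MAP pH 10.5 and absorbance read at 405 nm. IC50 obtained by non-linear fitting of the dose−response curve.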

[2] = target: T1, Beta-N-acetyl-D-hexosaminidase-A/B; assay: Inhibition of beta-N-acetylhexosaminidase (unknown origin); type: protein assay

IC50 [1]: 17 µM | IC50 [2]: 15 µM
Structure (SMILES): CCc1nc(N)nc(N)c1-c1ccc(Cl)cc1 [PYRIMETHAMINE]
